From ChEMBL document CHEMBL1126733, “Orally active, nonpeptide vasopressin V1 antagonists. A novel series of 1-(1-substituted 4-piperidyl)-3,4-dihdyro-2(1H)-quinolinone” (J Med Chem, 1993) come the findings set out here.

Sequences of proteins named here, by UniProt entry; tags and fusion partners are left off.
UniProt P30560, whole entry, looked up: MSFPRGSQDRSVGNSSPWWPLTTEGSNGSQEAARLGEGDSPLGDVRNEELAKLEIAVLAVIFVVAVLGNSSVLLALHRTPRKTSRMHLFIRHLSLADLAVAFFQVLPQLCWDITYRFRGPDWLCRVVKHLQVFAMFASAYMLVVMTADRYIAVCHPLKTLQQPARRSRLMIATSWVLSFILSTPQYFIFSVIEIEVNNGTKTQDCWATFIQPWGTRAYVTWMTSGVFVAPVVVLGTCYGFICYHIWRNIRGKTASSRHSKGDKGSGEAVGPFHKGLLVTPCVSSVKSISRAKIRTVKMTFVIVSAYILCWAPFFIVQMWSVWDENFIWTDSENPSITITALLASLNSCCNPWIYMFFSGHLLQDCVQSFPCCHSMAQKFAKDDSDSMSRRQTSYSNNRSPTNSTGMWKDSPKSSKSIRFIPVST

This experiment addresses Vasopressin V1a receptor (Rattus norvegicus) (UniProt P30560). As to the kind of experiment: Inhibition expressed as percent change in diastolic blood pressure increased by AVP (30 milliunits / kg, iv) before and after oral administration at uM/kg. As to conditions: Artery. Type of experiment: functional, organism-based.

As to `O=CNCCCOc1ccc(C(=O)N2CCC(N3C(=O)CCc4ccccc43)CC2)cc1`, the inhibition (as a rule, the change of the read-out against control, counted positive when it falls) was determined as 50%.
